Measured values published in patent US20130184251A1, “HETEROAROMATIC AND AROMATIC PIPERAZINYL AZETIDINYL AMIDES AS MONOACYLGLYCEROL LIPASE INHIBITORS” (Janssen Pharmaceutica, NV, priority 2009, published 2013).

By UniProt entry, the sequences of proteins in these tests, tags left out. Where a name states a change or a piece, a line headed by the entry shows the natural chain unless it says otherwise.
UniProt Q99685: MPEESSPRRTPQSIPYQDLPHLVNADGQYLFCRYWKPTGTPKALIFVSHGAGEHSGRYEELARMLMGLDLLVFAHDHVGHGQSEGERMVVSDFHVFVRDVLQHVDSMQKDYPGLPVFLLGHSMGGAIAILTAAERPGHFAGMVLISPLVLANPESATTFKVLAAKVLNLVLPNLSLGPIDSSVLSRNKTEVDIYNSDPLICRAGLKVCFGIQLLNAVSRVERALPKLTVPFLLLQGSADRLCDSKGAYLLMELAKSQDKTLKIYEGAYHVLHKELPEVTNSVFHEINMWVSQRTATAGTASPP

Columns and labels:
[1] = biological target: T1, purified mutant MGL (mut-MGLL 11-313 L179S L186S) (Homo sapiens, UniProt Q99685, L169S/L176S); assay: MGL ThermoFluor assay; settings: read-out: Ex. 4 Kd
[2] = biological target: T1, purified mutant MGL (mut-MGLL 11-313 L179S L186S); assay: MGL enzyme activity assay (mutant MGL); settings: read-out: Ex. 3 (mutant) IC50; mutant MGL (mut-MGLL 11-313 L179S L186S)

1-{1-[(1,5-Biphenyl-1H-pyrazol-3-yl)carbonyl]azetidin-3-yl}-4-pyridin-2-ylpiperazine
Kd [1]: 952 nM
IC50 [2]: 749 nM
